AlphaSeq binding of Ab-91 heavy chain variants to a spike HR2 peptide

Values reported by Engelhart et al. 2022, doi:10.1038/s41597-022-01779-4 (FLAb copy).

The target is the same throughout: PDVDLGDISGINAS, from the HR2 region of SARS-CoV-2 spike.

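The parent was found by panning a naive human phage display library on the peptide. The library (AAYL51) carries one to three amino acid substitutions per variant, with no insertions or deletions. The scFvs were displayed on barcoded MATa yeast, the peptide on MATalpha yeast. Pairs that bind mate more often; barcode pairs of the diploids are counted by sequencing. A regression on co-assayed BCL2-family reference pairs converts the normalised counts of each replicate to an apparent Kd. Each pool was mated in three replicate cultures.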

Parent scFv Ab-91: VL joined to VH by three GGGGS repeats. Changes lie in the heavy chain CDRs alone.
VL: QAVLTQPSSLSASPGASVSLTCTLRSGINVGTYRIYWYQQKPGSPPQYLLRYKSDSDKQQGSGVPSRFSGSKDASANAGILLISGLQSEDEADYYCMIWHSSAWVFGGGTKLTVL
VH: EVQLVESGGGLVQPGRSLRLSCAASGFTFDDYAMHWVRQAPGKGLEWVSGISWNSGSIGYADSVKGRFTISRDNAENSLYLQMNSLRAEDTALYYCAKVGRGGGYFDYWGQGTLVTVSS

Variants are written as CDR1, CDR2 and CDR3 of the heavy chain (limits as in the source). Parent: GFTFDDYAMH, GISWNSGSIGYADSVK, VGRGGGYFDY.
Scale: log10 of Kd in nM, estimated from mating counts; low values are strong binders.
Replicates are averaged; those with no signal do not enter the mean.
An entry "nd" has no value in the source: the pair was not observed among the diploids in any replicate. This suggests poor binding but is not conclusive.
Three control strains display no target. For library AAYL51, 21% of the pairings with them gave a signal, with a median of 4.54 and one signal in twenty below 3.26, so weak values seen in few replicates may be background. For each scFv, signals with the empty controls are counted beside the result.

CDR-H1 | CDR-H2 | CDR-H3 | log10 Kd (nM), mean | detected | control signals
GFTFDDYAMH | GISWNSGNIGYADSVK | VGRGGGIFDY | nd | 0 of 3 | 4 of 9
GFTDDDYAMH | GICWNSGSIGYWDSVK | VGRGGGYFDY | nd | 0 of 3 | 0 of 9
GFTIDDYAMH | GISWCSGSIGYADSVK | VGRGGGYFDY | nd | 0 of 3 | 2 of 9
GFTFDDVAMH | GISWNSGSIGGADSVK | VGRGGKYFDY | nd | 0 of 3 | 1 of 9
GFTFDDYAMH | GISWNSGSIFPYDSVK | VGRGGGYFDY | 5.00 | 1 of 3 | 0 of 9
GFTFDDYGMH | GLSWNSGSIGYADSVK | VGRGGAYFDY | 4.64 | 3 of 3 | 7 of 9
HFTFDDYAMH | CISWNSGSIGYADSVK | VGRGGGYFEY | nd | 0 of 3 | 0 of 9
GFTFDDYAMH | GISWNSGSTGRADSVK | VGIGGGYFDY | nd | 0 of 3 | 1 of 9
GFTFDDYAMH | GISWNSGSSGYADQVK | VGRGGGYFYY | 1.78 | 3 of 3 | 6 of 9
GPTFDDYAMH | GISWNSGSWVYADSVK | VGRGGGYFDY | 3.38 | 1 of 3 | 1 of 9
GFTFDDYAMH | IIHWNSGSIGIADSVK | VGRGGGYFDY | 4.30 | 2 of 3 | 1 of 9
GWTFDDYAMH | GISINSGSIGYADSVK | VGRGGGYYDY | nd | 0 of 3 | 0 of 9
GFTFDDYAMH | GISWNIGSIGYADSVK | VGRGGGWFDY | nd | 0 of 3 | 0 of 9
GPTFDDYFMH | GISWNSGSIGYADSVK | VGRGGGYEDY | nd | 0 of 3 | 1 of 9
GFTFDDYHMH | GISWNSGSIGYADSRM | VGRGGGYFDY | nd | 0 of 3 | 0 of 9
GFTFDDYAMH | GRSWNSGSIGYADNVK | VGRGGGFFDY | nd | 0 of 3 | 2 of 9
RFTFDDDAMH | GISWNSGSIGYADSVV | VGRGGGYFDY | nd | 0 of 3 | 0 of 9
GVRFDDYAMH | GISWNSGSIGYADSVK | VGRGGGYFDY | 2.66 | 3 of 3 | 1 of 9
GFTFDNYAMH | GISWNSGSIGYADSVK | VGRGKGYFDP | nd | 0 of 3 | 0 of 9
GFTFDDYAMH | GISWNPGSIGHADSVK | VGRGGGYFDL | nd | 0 of 3 | 1 of 9
GFTFKDYAML | GISWNSGSIGYADSVK | VGLGGGYFDY | nd | 0 of 3 | 0 of 9
GFTFDDCAMH | HISWNSGSIGWADSVK | VGRGGGYFDY | 3.43 | 1 of 3 | 1 of 9
GFTGDDYAMH | GISWNSGSIGYADDVK | SGRGGGYFDY | 3.37 | 2 of 3 | 1 of 9
GFTFDDDAMH | IISWNSGSIGYMDSVK | VGRGGGYFDY | 4.78 | 2 of 3 | 1 of 9
GQTFDDYAMH | GISWNSGVIGYFDSVK | VGRGGGYFDY | 5.70 | 3 of 3 | 5 of 9
GFFFDDCAMH | GISWNSGSIGYADEVK | VGRGGGYFDY | 4.43 | 1 of 3 | 5 of 9
GFTFDDYAMH | GISWNSGSIGYADSVK | VGRGGYYFSH | 3.72 | 1 of 3 | 0 of 9
GFTFDDYAMH | GISWNSGSRGYADSVK | VGDGGGYVDY | 3.11 | 1 of 3 | 1 of 9
GFTCDFYAMH | GISWNSGSIGYADSVK | VGMGGGYFDY | nd | 0 of 3 | 0 of 9
GFTFDDYAMH | WISWESGSIGYADSVK | VGRGGGYFNY | nd | 0 of 3 | 1 of 9
GFTFDDYAMH | GISWNSGSICYADSVK | VGRGGDYSDY | 5.04 | 3 of 3 | 3 of 9
HFMFDDYAMH | GISWNSGSIGYADSVW | VGRGGGYFDY | nd | 0 of 3 | 0 of 9
GFTFADYAMH | GISWNSGSIGYADSVK | VGRGGSYFDY | 1.03 | 3 of 3 | 2 of 9
FFTFDDYAMH | RISWNSGSIGYADSVK | VGRGGGYFDK | 5.60 | 2 of 3 | 5 of 9
GFEFDDYAMH | GISWNSQSIGYADYVK | VGRGGGYFDY | nd | 0 of 3 | 0 of 9
GFTFDDYPIH | GISWNSGSIGYADSVK | VGDGGGYFDY | nd | 0 of 3 | 2 of 9
GFTFDDHAMH | GISWNSGSIGYDDSVK | VGRGGGYFDY | nd | 0 of 3 | 2 of 9
CFTFDDYAMH | GISWNSLSWGYADSVK | VGRGGGYFDY | 4.62 | 3 of 3 | 4 of 9
GFTHTDYAMH | GISWNSQSIGYADSVK | VGRGGGYFDY | 3.83 | 1 of 3 | 0 of 9
GFTFCDYAMH | GISWNSGSIGYVDSVK | VGRGSGYFDY | 4.66 | 3 of 3 | 5 of 9
GFTFDDYAMH | GPSWNSGSIGMADSVK | VGRGGGYFDC | nd | 0 of 3 | 2 of 9
LGTFDDYAMH | GISWNSGSIGYADSVK | VGRGGSYFDY | 5.67 | 2 of 3 | 6 of 9
GFTFDDYAMY | GISWNSGSIGYADSVK | VGEGGGYMDY | 4.67 | 2 of 3 | 5 of 9
GFTFDDYAMH | TISWNSGSIGYADSVK | VGRGGKYFDM | 3.17 | 1 of 3 | 1 of 9
GFTFDDQAMH | GISWNWGSIGLADSVK | VGRGGGYFDY | nd | 0 of 3 | 0 of 9
GFTFDDYAHH | GISWNSGSIHYADSVK | VGIGGGYFDY | 4.92 | 3 of 3 | 5 of 9
GFTFDDYAMH | GISWLSGSIGYMDSVK | VGRGGGYFDY | 6.06 | 1 of 3 | 4 of 9
GFTFDDYAAH | GISANHGSIGYADSVK | VGRGGGYFDY | nd | 0 of 3 | 0 of 9
GDTFDDYAMH | GISWNSGSIGYADSVK | VGRGGPKFDY | 4.44 | 1 of 3 | 1 of 9
GFTCDDYAMH | LHSWNSGSIGYADSVK | VGRGGGYFDY | nd | 0 of 3 | 0 of 9
GFTFDDYAMH | TISWWSGSIGYADSVK | VGRGAGYFDY | 5.54 | 2 of 3 | 4 of 9
GFTFDDYAMH | GISWNEGSIGLADSVK | VGRGGGYFQY | nd | 0 of 3 | 1 of 9
GFTFDDYAMH | GISWDSGSIGVADSVK | VGRGGGYFHY | nd | 0 of 3 | 0 of 9
GFTFDYYAMH | GISWNSGSIGYADSVK | VDRGGGYFDY | nd | 0 of 3 | 0 of 9
GFTFDDYAMH | GGSWNSGSIGYGDSVK | VYRGGGYFDY | 5.30 | 1 of 3 | 3 of 9
GFTFDNYAMG | GISWNSGSINYADSVK | VGRGGGYFDY | 4.99 | 2 of 3 | 2 of 9
GFTFDDYAMH | GISWNSGSIGQADSTK | VGRGGGYSDY | 3.85 | 3 of 3 | 3 of 9
GITFDDYAMH | GISWNSGSIGYADSVK | VGRGMGYFDY | nd | 0 of 3 | 0 of 9
GFYFDDYAMP | GISWNSGSIGAADSVK | VGRGGGYFDY | nd | 0 of 3 | 0 of 9
GFTFDDYCMH | GISWPSGSIGYADSVK | VHRGGGYFDY | nd | 0 of 3 | 0 of 9
GNTFDDYAMH | AISWNSISIGYADSVK | VGRGGGYFDY | nd | 0 of 3 | 1 of 9
GFTFDDYAQH | GISFNSGSIGYADSVK | VGRGGGYNDY | 4.01 | 1 of 3 | 0 of 9
GFTFDDYAMH | GISWRSGSIGYADSVK | VDRGGGYWDY | 5.03 | 1 of 3 | 1 of 9
GFYFDDYAMH | GIPWNSGSIGYADSVK | VSRGGGYFDY | 3.52 | 1 of 3 | 1 of 9
GFTFDDVAMH | GISWNSGSIGYANSLK | VGRGGGYFDY | 3.38 | 3 of 3 | 1 of 9
GSTFDDYATH | GISWNSGSIGYYDSVK | VGRGGGYFDY | 5.70 | 2 of 3 | 4 of 9
GFTFDDYEMH | GISWNSGSIGYADFVK | VGRGGFYFDY | 4.29 | 2 of 3 | 3 of 9
GFTFDDYFMH | GISWNSGHIGYADSVK | VGRGGGYYDY | 4.66 | 1 of 3 | 0 of 9
GFTSDDYAMH | GISWNSGSIGYADCVK | VGRGGGYFDQ | 4.10 | 1 of 3 | 1 of 9
GFTFDDYAMH | GISWNSGSIGYAYSVK | VGAGGGYFDY | 1.73 | 3 of 3 | 5 of 9
GFTGDDYAMH | GISWNSGSIGGADSVK | VGRDGGYFDY | nd | 0 of 3 | 0 of 9
GFAFDDYAMH | GISVNSGSIGYADSVK | VGRVGGYFDY | 3.27 | 1 of 3 | 1 of 9
GFTDDDFAMH | GISWNSGSIGPADSVK | VGRGGGYFDY | nd | 0 of 3 | 1 of 9
HFTFDDYAMH | GISWNSGSIGYADSVK | VGRHGGYFEY | nd | 0 of 3 | 0 of 9
GFTFDDYAMH | GITWNSGSIGYADSVK | VGCGGPYFDY | nd | 0 of 3 | 0 of 9
GFPFDDYAMH | GISWNSGSILYADSVK | VGRGGGYFDN | 4.62 | 1 of 3 | 4 of 9
GFTFDDYAMH | GISWNSGSIGYADSVK | QGRGGGYFPH | nd | 0 of 3 | 0 of 9
GFTFDAYAMH | GISWNSGMIGYADSVK | VQRGGGYFDY | nd | 0 of 3 | 0 of 9
GFTFDDYAMV | GISNNSGLIGYADSVK | VGRGGGYFDY | 4.55 | 1 of 3 | 1 of 9
GFTFDDYGMH | GISWNSISIGYADSVK | VGRGMGYFDY | 3.99 | 1 of 3 | 2 of 9

The first 8 entries again:

CDR-H1 | CDR-H2 | CDR-H3 | log10 Kd (nM), mean | detected | control signals
GFTFDDYAMH | GISWNSGNIGYADSVK | VGRGGGIFDY | nd | 0 of 3 | 4 of 9
GFTDDDYAMH | GICWNSGSIGYWDSVK | VGRGGGYFDY | nd | 0 of 3 | 0 of 9
GFTIDDYAMH | GISWCSGSIGYADSVK | VGRGGGYFDY | nd | 0 of 3 | 2 of 9
GFTFDDVAMH | GISWNSGSIGGADSVK | VGRGGKYFDY | nd | 0 of 3 | 1 of 9
GFTFDDYAMH | GISWNSGSIFPYDSVK | VGRGGGYFDY | 5.00 | 1 of 3 | 0 of 9
GFTFDDYGMH | GLSWNSGSIGYADSVK | VGRGGAYFDY | 4.64 | 3 of 3 | 7 of 9
HFTFDDYAMH | CISWNSGSIGYADSVK | VGRGGGYFEY | nd | 0 of 3 | 0 of 9
GFTFDDYAMH | GISWNSGSTGRADSVK | VGIGGGYFDY | nd | 0 of 3 | 1 of 9

For reference, the parent read 1.86 as the reference entry and 0.88 as a member of this library.